## Experimental melting point values from OPERA 2.9

From the experimental data distributed with OPERA 2.9.

Melting points are in °C.

- CCCC(C)C(=O)Nc1ccc(Cl)c(Cl)c1 (centres undefined) [N-(3,4-Dichlorophenyl)-2-methylpentanamide]: melting point 106 °C
- CC(O)c1cc2ccccc2o1 (centres undefined) [1-(1-benzofuran-2-yl)ethanol]: melting point 17 °C
- O=C(O)c1nn(Cc2ccccc2)c(=O)c2ccccc12 [3-Benzyl-4-oxo-3,4-dihydrophthalazine-1-carboxylic acid]: melting point 200 °C
- CN(CCO)c1ccc(N=Nc2c(Cl)cc([N+](=O)[O-])cc2Cl)cc1 [C.I. Disperse Orange 5]: melting point 127 °C
- CCOCc1c(C(=O)O)oc2ccccc12 [3-(ethoxymethyl)-1-benzofuran-2-carboxylic acid]: melting point 104 °C
- Cc1cc(N)ccc1N1CCCC1=O [1-(4-amino-2-methylphenyl)pyrrolidin-2-one]: melting point 160 °C
- CC(C)C(=O)NC(N)=S [N-Carbamothioyl-2-methylpropanamide]: melting point 115 °C
- Cc1cc2ccc3cccc4ccc(c1)c2c34 [2-Methylpyrene]: melting point 143 °C
- O=S(=O)(Cl)c1ccc(CCCl)cc1 [4-(2-chloroethyl)benzenesulfonyl Chloride]: melting point 54 °C
- Cc1sc2[nH]c(=S)[nH]c(=O)c2c1C [2-mercapto-5,6-dimethylthieno[2,3-d]pyrimidin-4(3h)-one]: melting point 329 °C
- O=C(O)COc1ccc(F)cc1Cl [(2-chloro-4-fluorophenoxy)acetic acid]: melting point 141 °C
- O=C(O)Cn1c(=O)oc2ccccc21 [(2-oxo-1,3-benzoxazol-3(2H)-yl)acetic acid]: melting point 179 °C
- N=C(NO)C1CCCC1 [N-Hydroxycyclopentanecarboximidamide]: melting point 75 °C
- CCc1ccccc1N1CC(C(=O)O)CC1=O (centres undefined) [1-(2-ethylphenyl)-5-oxopyrrolidine-3-carboxylic acid]: melting point 100 °C
- O=S(=O)(c1ccc(Cl)nc1)N1CCCCC1 [2-Chloro-5-(piperidine-1-sulfonyl)pyridine]: melting point 131 °C
- CCOC(=O)c1c(-c2ccc(OC)c(OC)c2)csc1N [ethyl 2-amino-4-(3,4-dimethoxyphenyl)thiophene-3-carboxylate]: melting point 224 °C
- Clc1nc(CSc2ccccc2)nc2sc3c(c12)CCCC3: melting point 56 °C
- O=C1C=CC(=O)N1c1cccc(Cl)c1 [1-(3-Chlorophenyl)-1H-pyrrole-2,5-dione]: melting point 87 °C
- COC(=O)c1c[nH]c(=O)c([N+](=O)[O-])c1 [Methyl 5-nitro-6-oxo-1,6-dihydropyridine-3-carboxylate]: melting point 215 °C
- Nc1cccnc1OCc1ccccc1 [2-(Benzyloxy)pyridin-3-amine]: melting point 52 °C
- Cc1cn2c(CC(=O)O)csc2n1 [(6-Methylimidazo[2,1-b][1,3]thiazol-3-yl)acetic acid]: melting point 212 °C
- Cc1n[nH]c(C)c1CC(=O)O [(3,5-Dimethyl-1H-pyrazol-4-yl)acetic acid]: melting point 153 °C
- Cc1ccc(C(=O)N(NC(=O)c2ccccc2)C(C)(C)C)cc1 [N'-Benzoyl-4-methyl-N-(2-methyl-2-propanyl)benzohydrazide]: melting point 188 °C
- Cc1ccc(S(=O)(=O)OC2CCCCC2)cc1 [Benzenesulfonic acid, 4-methyl-, cyclohexyl ester]: melting point 45.5 °C
- N#Cc1cc(F)c(F)cc1Cl [2-Chloro-4,5-difluorobenzonitrile]: melting point 34.5 °C
- COc1cccc(NCCC(=O)O)c1 [N-(3-Methoxyphenyl)-beta-alanine]: melting point 88 °C
- CC(=O)c1ccc(-n2cncn2)cc1 [1-[4-(1H-1,2,4-Triazol-1-yl)phenyl]ethan-1-one]: melting point 118 °C
- Cc1cccc(-c2nnc(CCl)o2)c1 [2-(chloromethyl)-5-(3-methylphenyl)-1,3,4-oxadiazole]: melting point 58 °C
- CC1=CC(C)=NS(=O)(=O)N1 [3,5-Dimethyl-1lambda~6~,2,6-thiadiazine-1,1(2H)-dione]: melting point 120 °C
- O=C(O)c1cccc(S(=O)(=O)NCc2ccccc2)c1 [3-Benzylsulfamoyl-benzoic acid]: melting point 226 °C
- CCCCCCCCCCCCCCCC(=O)OCC[N+](C)(C)CCOC(=O)CCCCCCCCCCCCCCC.[Cl-] [Dipalmitoylethyl dimonium chloride]: melting point 82 °C
- O=C(O)Cc1csc2nc(-c3ccccc3)cn12 [(6-phenylimidazo[2,1-b][1,3]thiazol-3-yl)acetic acid]: melting point 221 °C
- O=C(O)COc1ccc(F)c(Cl)c1 [(3-chloro-4-fluorophenoxy)acetic acid]: melting point 107 °C
- CC(=O)Nc1ccc([N+](=O)[O-])cc1[N+](=O)[O-] [2',4'-Dinitroacetanilide]: melting point 124 °C
- CCN(CC)S(=O)(=O)c1ccc(C)c(N)c1 [3-amino-N,N-diethyl-4-methylbenzenesulfonamide]: melting point 110 °C
- CS(=O)(=O)[O-].C[n+]1ccccc1/C=N/O [Pralidoxime methanesulfonate]: melting point 236 °C
- COc1ccccc1N1CC(C(=O)O)CC1=O (centres undefined) [1-(2-methoxyphenyl)-5-oxopyrrolidine-3-carboxylic acid]: melting point 140 °C
- CC(C)n1c(=S)[nH]c2ccccc21 [1-isopropyl-1h-benzimidazole-2-thiol]: melting point 139 °C
- NNC(=O)COc1ccc(Br)cc1 [2-(4-bromophenoxy)acetohydrazide]: melting point 171 °C
- COc1ccc(-n2c(C)cc(C=O)c2C)cc1 [1-(4-Methoxyphenyl)-2,5-dimethyl-1H-pyrrole-3-carbaldehyde]: melting point 134 °C
- COc1ccc(S(=O)(=O)Cl)cc1Cl [3-Chloro-4-methoxybenzene-1-sulfonyl chloride]: melting point 81 °C
- O=C(O)CSCC(=O)N1CCOCC1 [[(2-morpholin-4-yl-2-oxoethyl)thio]acetic acid]: melting point 120 °C
- CCCCCCCCCCCC(=O)OC(C)C [Isopropyl Laurate]: melting point -8 °C
- CCCCCCCCN(CCCCCCCC)CCCCCCCC [Trioctylamine]: melting point -36.8 °C
- O=C(CCl)Nc1nc(-c2ccc(F)cc2)cs1 [2-chloro-N-[4-(4-fluorophenyl)-1,3-thiazol-2-yl]acetamide]: melting point 143 °C
- O=C(O)C1CCCN(S(=O)(=O)c2ccccc2)C1 (centres undefined) [1-(phenylsulfonyl)piperidine-3-carboxylic acid]: melting point 122 °C
- O=C(O)c1cc(Cl)ccc1-n1cnnn1 [5-Chloro-2-(1H-tetrazol-1-yl)benzoic acid]: melting point 199 °C
- Cc1c(I)cccc1[N+](=O)[O-] [1-iodo-2-methyl-3-nitrobenzene]: melting point 35 °C
- CCn1cn[nH]c1=S [4-ethyl-4H-1,2,4-triazole-3-thiol]: melting point 99 °C

The last 5 entries again:

{"smiles": "O=C(CCl)Nc1nc(-c2ccc(F)cc2)cs1", "name": "2-chloro-N-[4-(4-fluorophenyl)-1,3-thiazol-2-yl]acetamide", "melting point (°C)": "143"}
{"smiles": "O=C(O)C1CCCN(S(=O)(=O)c2ccccc2)C1", "stereo": "centres undefined", "name": "1-(phenylsulfonyl)piperidine-3-carboxylic acid", "melting point (°C)": "122"}
{"smiles": "O=C(O)c1cc(Cl)ccc1-n1cnnn1", "name": "5-Chloro-2-(1H-tetrazol-1-yl)benzoic acid", "melting point (°C)": "199"}
{"smiles": "Cc1c(I)cccc1[N+](=O)[O-]", "name": "1-iodo-2-methyl-3-nitrobenzene", "melting point (°C)": "35"}
{"smiles": "CCn1cn[nH]c1=S", "name": "4-ethyl-4H-1,2,4-triazole-3-thiol", "melting point (°C)": "99"}

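The OPERA project collected these measurements from public sources as training and test data for property models. A listed value is a point estimate from one report or more. Conditions of the individual experiments are not part of the data. A value may pool stereoisomers or salt forms, and the file does not say which form was measured. Unmarked limits or estimates from the upstream databases cannot be ruled out.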